Laboratory results reported in patent publication US10087225B2, “Formulation of MK2 inhibitor peptides” (MOERAE MATRIX, INC., priority 2015, dated 2018).

Amino acid sequences for entries named in this document (tags omitted). A change or cut given only in a name is not applied to a line headed by its entry. Residues count along the entry.
UniProt Q9Y5S2: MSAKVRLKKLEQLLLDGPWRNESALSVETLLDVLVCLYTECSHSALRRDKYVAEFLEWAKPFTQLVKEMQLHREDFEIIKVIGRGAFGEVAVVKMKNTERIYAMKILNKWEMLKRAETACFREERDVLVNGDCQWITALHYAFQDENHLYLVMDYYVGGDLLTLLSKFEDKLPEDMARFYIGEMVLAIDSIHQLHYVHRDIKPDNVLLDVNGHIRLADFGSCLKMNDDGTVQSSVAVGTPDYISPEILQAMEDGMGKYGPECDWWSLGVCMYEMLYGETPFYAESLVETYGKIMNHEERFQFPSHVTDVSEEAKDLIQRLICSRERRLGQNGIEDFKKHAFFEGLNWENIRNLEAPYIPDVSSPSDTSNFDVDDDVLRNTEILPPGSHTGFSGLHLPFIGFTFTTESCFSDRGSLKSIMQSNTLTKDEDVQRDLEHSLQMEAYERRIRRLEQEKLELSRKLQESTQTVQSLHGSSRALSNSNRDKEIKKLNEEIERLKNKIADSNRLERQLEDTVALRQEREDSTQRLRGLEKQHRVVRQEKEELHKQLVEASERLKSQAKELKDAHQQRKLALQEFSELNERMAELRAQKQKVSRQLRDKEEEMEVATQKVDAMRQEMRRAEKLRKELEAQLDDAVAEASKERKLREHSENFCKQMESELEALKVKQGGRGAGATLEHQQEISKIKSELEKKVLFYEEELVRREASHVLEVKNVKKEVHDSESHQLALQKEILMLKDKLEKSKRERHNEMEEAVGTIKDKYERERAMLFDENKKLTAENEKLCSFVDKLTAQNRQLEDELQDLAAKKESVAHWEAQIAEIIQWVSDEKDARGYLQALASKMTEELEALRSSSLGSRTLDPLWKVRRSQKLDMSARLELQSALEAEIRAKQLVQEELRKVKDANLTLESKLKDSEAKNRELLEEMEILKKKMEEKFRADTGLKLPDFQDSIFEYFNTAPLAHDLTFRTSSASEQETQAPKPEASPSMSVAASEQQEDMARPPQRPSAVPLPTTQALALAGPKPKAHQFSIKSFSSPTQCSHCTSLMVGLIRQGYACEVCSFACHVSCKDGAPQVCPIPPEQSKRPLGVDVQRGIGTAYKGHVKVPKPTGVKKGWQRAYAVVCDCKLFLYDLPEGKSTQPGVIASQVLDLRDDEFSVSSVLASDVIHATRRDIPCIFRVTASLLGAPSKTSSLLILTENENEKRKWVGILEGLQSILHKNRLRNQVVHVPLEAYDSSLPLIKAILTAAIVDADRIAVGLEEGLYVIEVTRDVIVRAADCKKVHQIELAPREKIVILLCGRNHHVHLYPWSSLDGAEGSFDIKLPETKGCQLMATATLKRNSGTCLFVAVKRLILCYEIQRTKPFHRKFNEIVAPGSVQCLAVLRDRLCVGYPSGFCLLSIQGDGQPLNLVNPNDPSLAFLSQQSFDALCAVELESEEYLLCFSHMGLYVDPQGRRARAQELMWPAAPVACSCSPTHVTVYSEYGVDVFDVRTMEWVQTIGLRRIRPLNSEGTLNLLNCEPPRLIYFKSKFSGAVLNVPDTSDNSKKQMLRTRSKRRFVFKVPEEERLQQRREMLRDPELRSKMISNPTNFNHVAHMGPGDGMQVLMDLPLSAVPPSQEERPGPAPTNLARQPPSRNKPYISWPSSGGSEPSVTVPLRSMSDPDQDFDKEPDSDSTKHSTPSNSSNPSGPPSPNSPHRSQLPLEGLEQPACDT
UniProt Q8NG66: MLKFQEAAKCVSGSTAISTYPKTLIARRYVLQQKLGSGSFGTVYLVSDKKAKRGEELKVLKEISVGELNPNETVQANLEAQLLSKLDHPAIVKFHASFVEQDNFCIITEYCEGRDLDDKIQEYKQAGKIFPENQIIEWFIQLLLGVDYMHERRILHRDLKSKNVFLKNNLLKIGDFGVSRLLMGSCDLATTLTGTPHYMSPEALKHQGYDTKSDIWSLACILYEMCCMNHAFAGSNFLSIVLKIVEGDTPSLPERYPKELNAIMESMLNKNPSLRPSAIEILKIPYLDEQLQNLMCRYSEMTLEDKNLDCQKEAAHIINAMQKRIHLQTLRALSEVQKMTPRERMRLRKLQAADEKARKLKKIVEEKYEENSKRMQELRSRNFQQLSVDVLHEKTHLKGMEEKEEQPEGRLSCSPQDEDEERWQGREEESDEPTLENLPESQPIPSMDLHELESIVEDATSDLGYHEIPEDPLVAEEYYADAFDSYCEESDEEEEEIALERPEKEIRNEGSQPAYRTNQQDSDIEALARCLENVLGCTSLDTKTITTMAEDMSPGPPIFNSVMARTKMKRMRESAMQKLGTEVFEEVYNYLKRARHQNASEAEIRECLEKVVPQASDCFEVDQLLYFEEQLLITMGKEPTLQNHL
UniProt Q15349, whole entry: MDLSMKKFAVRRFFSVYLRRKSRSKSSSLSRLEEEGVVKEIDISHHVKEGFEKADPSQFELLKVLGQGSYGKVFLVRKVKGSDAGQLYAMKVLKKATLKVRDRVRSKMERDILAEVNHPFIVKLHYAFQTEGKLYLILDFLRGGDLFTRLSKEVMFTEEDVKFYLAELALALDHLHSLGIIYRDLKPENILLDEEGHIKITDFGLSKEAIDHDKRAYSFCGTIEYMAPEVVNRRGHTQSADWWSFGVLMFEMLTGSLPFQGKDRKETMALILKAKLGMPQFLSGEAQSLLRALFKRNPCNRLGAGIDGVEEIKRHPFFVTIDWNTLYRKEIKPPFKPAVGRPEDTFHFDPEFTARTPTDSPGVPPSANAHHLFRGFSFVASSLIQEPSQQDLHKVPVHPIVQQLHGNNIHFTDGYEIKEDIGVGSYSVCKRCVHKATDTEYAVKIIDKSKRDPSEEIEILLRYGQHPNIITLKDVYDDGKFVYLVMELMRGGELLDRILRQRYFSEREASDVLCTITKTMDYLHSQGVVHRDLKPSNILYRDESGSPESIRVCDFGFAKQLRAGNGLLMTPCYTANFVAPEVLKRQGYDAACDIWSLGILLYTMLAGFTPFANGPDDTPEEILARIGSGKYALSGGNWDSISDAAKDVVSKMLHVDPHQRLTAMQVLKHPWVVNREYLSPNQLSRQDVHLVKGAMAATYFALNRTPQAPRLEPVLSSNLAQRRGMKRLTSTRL
UniProt Q13464: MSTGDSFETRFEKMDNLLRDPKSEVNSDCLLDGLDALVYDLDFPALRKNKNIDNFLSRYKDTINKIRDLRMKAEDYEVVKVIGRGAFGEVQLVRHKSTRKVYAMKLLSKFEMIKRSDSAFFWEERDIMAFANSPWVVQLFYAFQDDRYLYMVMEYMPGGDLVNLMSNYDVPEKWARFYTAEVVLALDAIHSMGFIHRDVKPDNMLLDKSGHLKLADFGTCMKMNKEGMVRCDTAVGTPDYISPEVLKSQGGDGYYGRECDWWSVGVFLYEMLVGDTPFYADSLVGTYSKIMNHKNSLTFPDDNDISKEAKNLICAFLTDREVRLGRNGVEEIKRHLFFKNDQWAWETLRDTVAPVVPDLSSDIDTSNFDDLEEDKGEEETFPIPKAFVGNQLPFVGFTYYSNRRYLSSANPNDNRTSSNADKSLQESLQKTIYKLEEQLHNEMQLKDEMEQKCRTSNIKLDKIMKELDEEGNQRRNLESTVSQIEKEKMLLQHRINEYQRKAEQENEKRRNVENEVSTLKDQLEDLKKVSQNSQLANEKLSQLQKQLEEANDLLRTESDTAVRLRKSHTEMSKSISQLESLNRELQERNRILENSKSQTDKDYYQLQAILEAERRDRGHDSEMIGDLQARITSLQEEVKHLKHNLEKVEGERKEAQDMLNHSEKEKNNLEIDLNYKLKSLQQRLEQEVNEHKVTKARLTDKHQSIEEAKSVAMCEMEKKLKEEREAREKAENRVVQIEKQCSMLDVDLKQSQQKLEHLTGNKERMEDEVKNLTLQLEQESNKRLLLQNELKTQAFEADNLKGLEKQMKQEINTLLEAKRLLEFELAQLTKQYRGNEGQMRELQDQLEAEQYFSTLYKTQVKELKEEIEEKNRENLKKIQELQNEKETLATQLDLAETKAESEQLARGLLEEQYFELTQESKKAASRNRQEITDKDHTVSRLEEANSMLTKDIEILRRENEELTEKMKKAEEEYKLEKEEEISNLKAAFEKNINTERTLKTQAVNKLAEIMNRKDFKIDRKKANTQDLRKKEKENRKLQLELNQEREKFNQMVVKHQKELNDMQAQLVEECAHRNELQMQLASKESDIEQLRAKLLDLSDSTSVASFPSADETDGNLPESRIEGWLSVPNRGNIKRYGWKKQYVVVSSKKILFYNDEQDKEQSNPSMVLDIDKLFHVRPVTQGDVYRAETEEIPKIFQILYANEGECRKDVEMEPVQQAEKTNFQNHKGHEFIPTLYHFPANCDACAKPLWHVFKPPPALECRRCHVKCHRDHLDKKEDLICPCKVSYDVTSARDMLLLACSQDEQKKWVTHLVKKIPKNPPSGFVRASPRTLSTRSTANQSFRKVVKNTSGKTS
UniProt P51812, whole entry: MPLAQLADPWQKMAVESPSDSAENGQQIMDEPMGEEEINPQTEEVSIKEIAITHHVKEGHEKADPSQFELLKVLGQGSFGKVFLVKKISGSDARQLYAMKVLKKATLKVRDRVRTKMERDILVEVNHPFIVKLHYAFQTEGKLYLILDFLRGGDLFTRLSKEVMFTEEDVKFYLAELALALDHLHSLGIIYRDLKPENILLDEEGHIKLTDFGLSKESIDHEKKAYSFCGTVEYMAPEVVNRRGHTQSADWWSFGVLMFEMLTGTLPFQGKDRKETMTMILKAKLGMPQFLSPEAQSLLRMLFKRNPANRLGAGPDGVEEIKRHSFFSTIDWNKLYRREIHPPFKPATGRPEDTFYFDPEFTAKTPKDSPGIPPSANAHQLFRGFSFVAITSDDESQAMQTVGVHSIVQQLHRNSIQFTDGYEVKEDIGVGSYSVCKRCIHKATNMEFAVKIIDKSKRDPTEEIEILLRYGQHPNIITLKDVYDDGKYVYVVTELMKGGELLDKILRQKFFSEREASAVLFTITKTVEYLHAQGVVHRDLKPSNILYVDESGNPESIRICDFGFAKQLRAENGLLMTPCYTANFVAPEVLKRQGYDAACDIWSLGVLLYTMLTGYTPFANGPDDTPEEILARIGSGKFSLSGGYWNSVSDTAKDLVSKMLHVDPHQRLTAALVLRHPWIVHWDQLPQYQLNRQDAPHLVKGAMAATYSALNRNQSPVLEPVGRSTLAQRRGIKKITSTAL
UniProt Q16832, 22-855: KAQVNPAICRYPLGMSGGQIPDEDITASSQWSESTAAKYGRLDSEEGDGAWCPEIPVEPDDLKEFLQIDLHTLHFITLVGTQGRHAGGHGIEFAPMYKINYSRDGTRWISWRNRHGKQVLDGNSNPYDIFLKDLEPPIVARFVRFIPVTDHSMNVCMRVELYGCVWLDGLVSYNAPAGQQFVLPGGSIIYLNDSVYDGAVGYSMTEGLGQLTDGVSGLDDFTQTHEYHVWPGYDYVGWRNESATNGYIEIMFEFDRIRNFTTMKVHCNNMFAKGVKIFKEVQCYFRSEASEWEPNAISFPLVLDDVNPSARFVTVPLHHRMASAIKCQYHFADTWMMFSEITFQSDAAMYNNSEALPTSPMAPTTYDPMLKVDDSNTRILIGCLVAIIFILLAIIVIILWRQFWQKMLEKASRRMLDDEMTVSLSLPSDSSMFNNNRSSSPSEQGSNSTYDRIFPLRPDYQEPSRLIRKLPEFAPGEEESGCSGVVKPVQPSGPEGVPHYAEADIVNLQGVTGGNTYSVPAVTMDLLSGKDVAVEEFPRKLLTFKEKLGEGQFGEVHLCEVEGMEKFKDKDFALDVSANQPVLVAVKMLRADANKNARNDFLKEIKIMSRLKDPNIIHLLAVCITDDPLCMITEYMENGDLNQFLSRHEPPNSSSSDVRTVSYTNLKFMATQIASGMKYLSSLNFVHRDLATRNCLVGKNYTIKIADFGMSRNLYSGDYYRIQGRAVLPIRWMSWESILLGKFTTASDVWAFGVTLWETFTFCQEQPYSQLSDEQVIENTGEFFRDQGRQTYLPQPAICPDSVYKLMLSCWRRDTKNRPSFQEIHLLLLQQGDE
UniProt Q8IU85: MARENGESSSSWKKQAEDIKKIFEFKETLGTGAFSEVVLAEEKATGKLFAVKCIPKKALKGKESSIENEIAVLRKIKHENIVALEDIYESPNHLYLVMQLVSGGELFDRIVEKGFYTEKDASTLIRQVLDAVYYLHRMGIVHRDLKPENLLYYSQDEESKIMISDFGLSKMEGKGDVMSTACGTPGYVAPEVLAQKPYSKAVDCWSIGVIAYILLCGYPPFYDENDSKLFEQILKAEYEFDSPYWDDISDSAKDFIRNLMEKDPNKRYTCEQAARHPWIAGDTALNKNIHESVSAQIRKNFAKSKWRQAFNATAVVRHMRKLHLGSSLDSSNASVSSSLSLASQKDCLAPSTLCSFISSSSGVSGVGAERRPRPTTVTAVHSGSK

How the values were obtained:
Experiment in all cases: Kinase Profiling Assay
Format in all cases: biochemical
MRCKβ(h) = MRCKβ(h) (Homo sapiens, UniProt Q9Y5S2)
NEK11(h) = NEK11(h) (Homo sapiens, UniProt Q8NG66)
CDK5/p25(h) = CDK5/p25(h) (Homo sapiens, UniProt Q00535)
Rsk3(h) = Rsk3(h) (Homo sapiens, UniProt Q15349)
TAK1(h) = TAK1(h) (Homo sapiens, UniProt O43318)
ROCK-I(h) = ROCK-I(h) (Homo sapiens, UniProt Q13464)
Ab1(M351T)(h) = Ab1(M351T)(h) (Homo sapiens, UniProt P00519, M351T)
Rsk2(h) = Rsk2(h) (Homo sapiens, UniProt P51812)
DDR2(h) = DDR2(h) (Homo sapiens, UniProt Q16832)
CDK2/cyclinE(h) = CDK2/cyclinE(h) (Homo sapiens, UniProt P24941)
CaMKIδ(h) = CaMKIδ(h) (Homo sapiens, UniProt Q8IU85)
CK1γ3(h) = CK1γ3(h) (Homo sapiens, UniProt Q9Y6M4)
PAK6(h) = PAK6(h) (Homo sapiens, UniProt Q9NQU5)
GSK3α(h) = GSK3α(h) (Homo sapiens, UniProt P49840)

CC(C)C[C@H](NC(=O)[C@H](C)NC(=O)[C@H](CCCCN)NC(=O)[C@H](C)NC(=O)[C@H](CCCNC(=N)N)NC(=O)[C@H](C)NC(=O)[C@H](CCC(N)=O)NC(=O)[C@H](CCCNC(=N)N)NC(=O)[C@H](C)NC(=O)[C@H](C)NC(=O)[C@H](C)NC(=O)[C@H](CCCNC(=N)N)NC(=O)[C@H](C)NC(=O)[C@@H](N)Cc1ccc(O)cc1)C(=O)N[C@@H](C)C(=O)N[C@@H](CCCNC(=N)N)C(=O)N[C@@H](CCC(N)=O)C(=O)N[C@@H](CC(C)C)C(=O)NCC(=O)N[C@H](C(=O)N[C@@H](C)C(=O)N[C@@H](C)C(=O)O)C(C)C [MMI-0100]
activity at 100 µM (MRCKβ(h)): 103% | activity at 100 µM (NEK11(h)): 102% | activity at 100 µM (CDK5/p25(h)): 114% | activity at 100 µM (Rsk3(h)): 76% | activity at 100 µM (TAK1(h)): 116% | activity at 100 µM (ROCK-I(h)): 99% | activity at 100 µM (Ab1(M351T)(h)): 128% | activity at 100 µM (Rsk2(h)): 65% | activity at 100 µM (DDR2(h)): 105% | activity at 100 µM (CDK2/cyclinE(h)): 106% | activity at 100 µM (CaMKIδ(h)): 59% | activity at 100 µM (CK1γ3(h)): 105% | activity at 100 µM (PAK6(h)): 121% | activity at 100 µM (GSK3α(h)): 183%
